Assay results taken from US4680304A, “Feed compositions containing 2-(α-pyridyl)-Δ^2 -heterocyclic compounds” (SmithKline Beckman Corporation, priority 1985, dated 1987).

Tested on: fermentation in the digestive tract (swine ileal/cecal inoculum)
Test: In vitro swine procedure (fistula test; incubation of filtered ileal/cecal inoculum)
Design: species or system swine (Yorkshire barrow)
Conditions: 166.67 ppm, 5 hours at 37°

SMILES: CC1(C)NN=C(c2ccccn2)N1 [5,5-Dimethyl-3-(2'-pyridyl)-4,5-dihydro-1H-triazole]
- LYS (lysine): 97 % of control values
